pKd: −log10 of the molar value. “And” between values parts separate entries of the source, which are not always exact repeats. Identical values can stand only once. Like-named read-outs stand apart in the source and are kept apart here.
Experiments:
[1] = Pharmacokinetic profile of 428-ε-Lys-α-NH-FITC vs. fluorescein in mice (LC/MS/MS of serum); assay type: in vivo, 129SV mice; details: injection of 100 μl of 170 μM solution
Experimental: The pharmacokinetic properties of conjugates of the invention are evaluated by injection of both said conjugate and the corresponding unconjugated agent (i.e. the agent that has not been modified by a compound of the invention) into mice and subsequent sampling of the conjugate and agent concentrations. Conjugate and agent concentrations are determined by Liquid Chromatography/Mass Spectrometry/Mass Spectrometry (LC-MS/MS) according to techniques known in the art.
100 μl of a 170 μM solution of fluorescein and of 428-ε-Lys-α-NH-FITC were injected into 2 pairs of immunocompetent 129SV mice.

Amino acid sequences for entries named in this document (tags omitted). Residues count along the entry.
UniProt P02768, 25-609 limits assumed: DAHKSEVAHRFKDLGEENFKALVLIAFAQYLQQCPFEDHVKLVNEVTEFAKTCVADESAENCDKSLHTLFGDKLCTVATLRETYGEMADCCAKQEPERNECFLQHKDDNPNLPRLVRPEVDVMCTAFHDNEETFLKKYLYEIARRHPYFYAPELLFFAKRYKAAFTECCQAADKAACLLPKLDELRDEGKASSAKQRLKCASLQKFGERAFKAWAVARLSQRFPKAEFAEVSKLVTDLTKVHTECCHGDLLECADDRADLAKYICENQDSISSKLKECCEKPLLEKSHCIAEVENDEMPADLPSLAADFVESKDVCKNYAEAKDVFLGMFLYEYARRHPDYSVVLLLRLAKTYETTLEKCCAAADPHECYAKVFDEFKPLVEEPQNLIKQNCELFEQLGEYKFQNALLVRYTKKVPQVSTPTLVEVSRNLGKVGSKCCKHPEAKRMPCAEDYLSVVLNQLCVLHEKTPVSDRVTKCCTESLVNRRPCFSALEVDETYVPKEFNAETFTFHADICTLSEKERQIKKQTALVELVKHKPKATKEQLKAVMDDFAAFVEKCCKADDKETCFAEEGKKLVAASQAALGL
UniProt P02770, 25-608 limits assumed: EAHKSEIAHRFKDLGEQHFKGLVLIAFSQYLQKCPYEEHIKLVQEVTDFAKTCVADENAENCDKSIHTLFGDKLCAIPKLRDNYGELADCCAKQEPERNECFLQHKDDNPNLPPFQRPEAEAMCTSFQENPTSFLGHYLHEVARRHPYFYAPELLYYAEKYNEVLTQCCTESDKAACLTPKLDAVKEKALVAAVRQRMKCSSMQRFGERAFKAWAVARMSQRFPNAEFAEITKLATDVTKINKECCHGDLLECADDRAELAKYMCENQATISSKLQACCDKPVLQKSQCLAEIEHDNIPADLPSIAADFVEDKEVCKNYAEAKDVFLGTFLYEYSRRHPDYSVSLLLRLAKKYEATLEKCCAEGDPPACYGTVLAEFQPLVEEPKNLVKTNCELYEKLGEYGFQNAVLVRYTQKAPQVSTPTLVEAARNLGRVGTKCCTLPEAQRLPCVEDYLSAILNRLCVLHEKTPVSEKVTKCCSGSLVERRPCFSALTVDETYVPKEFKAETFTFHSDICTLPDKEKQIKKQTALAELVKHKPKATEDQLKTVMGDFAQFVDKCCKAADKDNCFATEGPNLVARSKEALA
UniProt P07724, 25-608 limits assumed: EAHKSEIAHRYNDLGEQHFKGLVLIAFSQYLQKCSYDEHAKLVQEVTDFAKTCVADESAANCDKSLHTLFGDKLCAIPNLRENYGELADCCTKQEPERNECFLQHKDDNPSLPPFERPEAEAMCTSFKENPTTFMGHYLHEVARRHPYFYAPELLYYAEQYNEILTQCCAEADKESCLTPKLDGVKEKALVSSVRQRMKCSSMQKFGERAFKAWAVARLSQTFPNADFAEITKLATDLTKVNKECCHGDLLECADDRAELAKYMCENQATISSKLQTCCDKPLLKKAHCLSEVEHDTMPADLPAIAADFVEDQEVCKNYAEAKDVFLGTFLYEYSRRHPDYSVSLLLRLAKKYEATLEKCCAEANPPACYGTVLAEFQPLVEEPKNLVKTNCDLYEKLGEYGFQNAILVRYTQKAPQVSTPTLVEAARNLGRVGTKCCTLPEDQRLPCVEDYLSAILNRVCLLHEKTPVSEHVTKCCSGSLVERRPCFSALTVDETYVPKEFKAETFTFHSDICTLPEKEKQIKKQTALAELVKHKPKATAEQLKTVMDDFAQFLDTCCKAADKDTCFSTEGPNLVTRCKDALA

human serum albumin [2] = biological target: T1, human serum albumin (Homo sapiens, UniProt P02768); test: Electro-mobility shift assay; details: 10 μM compound preincubated with 100 μM HSA or human serum (diluted 1/5)
Experimental: An electro-mobility shift assay was carried out following the general protocol of reference 35. 10 μM fluorescein or 10 μM 428-ε-Lys-α-NH-FITC were each preincubated in 10 ul, in PBS buffer, with either 100 μM human serum albumin or human serum (diluted 1/5). The assay incubation time was 30 min. Polyacrylamide gel electrophoresis, was carried out using a 20%-acrylamide gel preparation, TBE (Tris/Borate/EDTA) buffer, and a sample loading volume of 10 ul in 5% sucrose. The running conditions were 180 V/40 min.

human serum albumin [3] = biological target: T1, human serum albumin; test: Isothermal titration calorimetry (ITC), human serum albumin
Experimental: (§1) The binding experiments by ITC were performed following the procedure of reference 34. 1×2 μl, followed by 29×20 μl, of 428-derivative were injected into 1.8 ml of human serum albumin. All ITC measurements were carried out at concentrations of 50-100 μM protein and 0.5-1 mM conjugate, in PBS, 2% DMSO at 37° C. […] This confirmed the desired characteristics of a universal “chemical handle” that may used to conjugate a wide range of agents to the compounds of the invention. 428-ε-Lys-α-NHAc also bound the serum albumin of other species. Murine serum albumin was recognised with similar affinity (Kd=3.7 μM and 3.6 μM in two separate measurements) whereas the affinity towards rat serum albumin was 6× lower (Kd=28 μM).
(§2) Generally, isothermal titration calorimetry measurements were performed using a VP-ITC instrument (Microcal). Fatty acid free HSA (Sigma, A1887) or fatty acid free MSA (A1056) was dissolved in PBS, 2% DMSO and dialyzed against the identical buffer. The concentration of protein for the experiment varied between 30 μM to 1 mM. The experiments were generally performed by titrating serum albumin with the binding molecules. HSA or MSA was titrated with a solution of binding molecule roughly ten fold higher in concentration than the protein solution in PBS, 2% DMSO at 37° C. Typically, titrations were performed until a ratio of 2:1 of ligand to binding sites on protein was reached. Ligands were dissolved in the dialysis buffer. The precise concentration of binding molecule was determined by HPLC/UV. The resulting titration curves were processed and fitted with the Origin 7 software (Microcal) to obtain Kd and ΔH values.

rat serum albumin = rat serum albumin (Rattus norvegicus, UniProt P02770); test: Isothermal titration calorimetry (ITC), rat serum albumin
Experimental: as §1

Murine serum albumin = Murine serum albumin (Mus musculus, UniProt P07724); test: Isothermal titration calorimetry (ITC), murine serum albumin; details: read-out: dissociation constant Kd, two separate measurements
Experimental: as §1
as §2, with “Typically, titrations were performed until a ratio of 2:1 of ligand to binding sites on protein was reached. Ligands were dissolved in the dialysis buffer.” left out, “The resulting titration curves were processed and fitted with the Origin 7 software (Microcal) to obtain Kd and ΔH values.” left out

[4] = Pharmacokinetic profiles of fluorescein and FAM derivatives in mouse (LC/MS/MS of plasma); assay type: in vivo, 129SvPas mice; details: mice, 20 nmol into the tail vein
Experimental: In a further in vivo experiment, the pharmacokinetic properties of fluorescein, phenethylamine-FAM, 428-D-Lys-FAM, and 622-D-Lys-FAM were measured and compared. Clearance profiles for the four compounds differed distinctly (FIG. 14).
Pharmacokinetic analyses were performed under the Project Licenses 198/2005 of the Veterinaramt des Kantons Zürich (issued to Dario Neri). 129SvPas mice were injected into the tail vein with 20 nmol of fluorescein, Phenethylamine-FAM, 428-D-Lys-FAM, or 622-D-Lys-FAM dissolved in 100 μl of 100 mM Tris/HCl, 105 mM NaCl, pH 8.2 (2 mice each). 20-30 μl blood samples were taken from the vena saphena with EDTA coated capillaries (Sarstedt) 1, 5, 15, 30, 60, 120, 240, 360, 480 and 1440 minutes after injection and centrifuged. 5-10 μl of plasma were mixed with 40 μl of 0.1% trifluoroacetic acid and 200 μl of ethanol and incubated on ice for 1 hour. After one hour the samples were centrifuged to remove the precipitated proteins. The supernatant was dried under vacuum and subsequently redissolved in 50 μl of DMSO/H2O. 40 μl were injected into an LC/MS/MS system (Micromass Quattro micro API) and run on a linear gradient from in 0.1% HCOOH from 5% to 95% acetonitrile in ten minutes on a Waters XTerra MS C18 column ([…], 1×50 mm) while observing the daughter ions with m/z of 287.1 and 202.1 of the parent ion 333.1 for fluorescein, with m/z of 287.3 and 332.3 of the parent ion 480.2 for Phenethylamine-FAM, with m/z of 287.3, 377.2 and 505.2 of the parent ion 777.1 for 428-D-Lys-FAM, and with m/z of 287.3 and 505.4 of the parent ion 651.3 for 622-D-Lys-FAM. Comparing the area under the curve with a previously obtained dilution series of fluorescein and 428-D-Lys-FAM in plasma with identical sample preparation allowed the quantification of the molecules.

HSA = HSA (Homo sapiens, UniProt P02768); test: Fluorescence polarisation with increasing amounts of HSA; details: read-out: dissociation constant, 100 nM compound, PBS, 1 h at 25° C.
Experimental: 100 nM of 428-D-Lys-FAM, 622-D-Lys-FAM and, for comparison, of fluorescein and of phenethylamine-FAM were incubated with increasing amounts of HSA in PBS for 1 h at 25° C. The fluorescence polarization was determined by excitation at 485 nm and measurement at 535 nm.

[5] = read-out: dissociation constant Kd, PBS, 2% DMSO, 37° C., to a single binding site on human serum albumin

O=C(CCCc1ccc(I)cc1)NCCCC[C@@H](NC(=S)Nc1ccc2c(c1)C(=O)OC21c2ccc(O)cc2Oc2cc(O)ccc21)C(=O)O
t1/2,α (serum, biphasic clearance) [1]: 0.375 h
t1/2,β (serum, biphasic clearance) [1]: 5.67 h
binding and specificity in electro-mobility shift (human serum albumin [2]): demonstrated the binding of 428-ε-Lys-α-NH-FITC and its specificity for HSA
pKd (human serum albumin [3]; read-out: dissociation constant Kd, PBS, 2% DMSO, 37° C.): 5.19

CCCC(=O)N[C@H](CCCCNC(=O)CCCc1ccc(I)cc1)C(=O)O
pKd (human serum albumin [3]; [5]): 5.26

CC(=O)NCCCC[C@@H](NC(=O)CCCCCCNC(=O)CCCc1ccc(I)cc1)C(=O)O
pKd (human serum albumin [3]; [5]): 5.10

CCCC(=O)NCCCC[C@@H](NC(=O)CCCCCCNC(=O)CCCc1ccc(I)cc1)C(=O)O
pKd (human serum albumin [3]; [5]): 5.10

CC(=O)N[C@H](CCCCNC(=O)CCCc1ccc(I)cc1)C(=O)O
affinity towards rat serum albumin, fold lower than for human/murine serum albumin (rat serum albumin): 6 ×
pKd (rat serum albumin; read-out: dissociation constant Kd): 4.55
pKd (Murine serum albumin): 5.43 and 5.44

O=C(CCCc1ccccc1)NCCCC[C@@H](NC(=O)c1ccc2c(c1)C(=O)OC21c2ccc(O)cc2Oc2cc(O)ccc21)C(=O)O
t1/2, α [4]: 5.3 min
t1/2, β [4]: 1.67 h
α-phase [4]: 98%
pKd (HSA): 5.18

O=C(O)CCCCCCNC(=O)CCCc1ccc(I)cc1
pKd (human serum albumin [3]; read-out: dissociation constant Kd, PBS, 2% DMSO, 37° C., to two binding sites comparable in affinity): 5.52
